US4232010A, “Calcium-antagonistic composition” (Kanebo, Ltd., priority 1978, dated 1980)

Biological target: T1, taenia coli (Cavia porcellus)
T1 construct: a test was conducted using isolated taenia colis about 2 cm long; from tissue; host or cells: isolated guinea-pig taenia coli
Experiment: Calcium antagonist activity (pA2), isolated guinea-pig taenia coli
Description: Male guinea-pigs weighing 350-450 g each were slaughtered and a test was conducted using isolated taenia colis about 2 cm long. A taenia coli was suspended in a Magnus chamber (Locke solution, 25°±2° C., aerated) and the contractile response of the taenia coli was recodered through an isotonic transducer. To the decalcified taenia coli was cumulatively added 0.1 to 100 mM of calcium in the presence of 6×10^-3 g/ml of K^+ to obtain a dose-contraction curve for calcium and, after the taenia coli was decalcified again, a dose-contraction curve for calcium was determined in the presence of the test compound. Based on the difference between the responses, the pA2 of calcium antagonist activity of the test compound was computed.

COc1ccc([C@@H]2Sc3ccccc3N(CCN(C)C)C(=O)[C@@H]2OC(C)=O)cc1 [Diltiazem, reference compound]
Kb: 417 nM
